{"source": "patent US11497740B2", "about": "“Use of Jumonji C demethylase inhibitors for the treatment and prevention of chemotherapy resistance and radioresistance in cancer” (THE BOARD OF REGENTS OF THE UNIVERSITY OF TEXAS SYSTEM, priority 2016, dated 2022)", "key": {"H1355 T16": {"test_system": "H1355 T16", "experiment": "MTS cell viability assay, H1355 T16 resistant variant vs H1355 Parental", "assay_type": "cell-based, human", "conditions": "SR = [IC50 of Parental]/[IC50 of Resistant]", "description": "(§1) NSCLC lines were treated with paclitaxel+carboplatin combination, given in a ˜2:3 wt/wt ratio, to mirror the clinical dosage values of ˜225 mg/m2 and ˜330 mg/m2, paclitaxel and carboplatin respectively. Note that considering the molecular weights of the two drugs, this translates to approximately a 1 to 3.4 molar ratio. Drugs were given in cycles, following a drug on/drug off treatment scheme. Each cycle consisted of 4-5 days of drug treatment and drug-free culturing for about 1-2 weeks or more to allow the surviving cells to repopulate the plate. […] Untreated parental cells were simultaneously maintained at all times for comparison. Cell viability was assessed in 96-well plates using standard MTS assays (Promega). Treatment duration in MTS assays was 4 days. Drugs were tested in two- or four-fold serial dilutions, totaling 8 different drug concentrations, with 8 replicates per concentration. Response was validated in multiple replicate plates (n≥3).\n(§2) Cell viability was assessed by standard MTS assays using Promega's CellTiter reagents. Eight drug concentrations given as two- or four-fold dilutions were tested for each chemotherapeutic agent. In addition, each experiment contained eight replicates per concentration and the entire assay was performed in multiple replicates (n≥3)."}, "H1299 T18 cells": {"test_system": "H1299 T18 cells", "experiment": "Microarray gene expression after 24 h treatment, H1299 T18 cells", "assay_type": "cell-based, human", "description": "Gene expression profiling was performed using Illumina HumanWG-6 V3 BeadArrays (for NSCLC patient tumors) or Illumina HumanHT-12 V4 BeadArrays (for cell lines and xenografts). […] Data were pre-processed using the R package mbcb for background correction (Ding et al., 2008), then log-transformed and quantile-normalized with the R package preprocessCore or using in-house MATRIX software ([…]). Microarray data can be found under GEO accession GSE77209. Log ratios, unpaired t-test p values and color-coded heat maps were obtained using MATRIX. For comparisons involving progressively resistant cell line series, analyses were performed using R package by fitting linear regression model on gene expression data against the log transformed IC50 values as measures of drug response. We fitted beta-uniform mixture model to a set of p-values using the R package ClassComparison. […] For xenograft data, differential gene expression analysis was performed by student's t-test. Using 35 gene signature, unsupervised hierarchical clustering (Eisen et al., 1998) was performed to separate neoadjuvant chemotherapy treated patients into two groups. Clustering was based on Euclidean distance matrix and maximum linkage method. Kaplan-Meier survival analysis and multivariate Cox regression were performed by R survival package and replotted using Graphpad Prism 6.00 (GraphPad Software, La Jolla, Calif. USA). […]"}, "[1]": {"test_system": "H1355 Parental xenografts", "experiment": "Subcutaneous xenograft drug response, H1355 Parental", "assay_type": "in vivo, mice", "conditions": "GSK-J4 100 mg/kg i.p. 5x per week; JIB-04 50 mg/kg oral gavage 3x per week; 4 weeks", "description": "(§3) Animals were housed under standard, sterile conditions at UTSW animal facility. All experiments were carried out under approved IACUC protocols and followed UTSW animal care procedures. For tumor growth rate studies and docetaxel+cisplatin drug response comparisons, 6-8 week old female NOD/SCID mice were used. For all subsequent in vivo drug response studies, 6 week old female athymic nude mice were used (Charles River Labs, Jackson Labs). Experimental details are provided in supplemental information.\n(§4) Parental and resistant NSCLC cell lines (1×10^6 cells in PBS or RPMI for H1299; 5×10^6 cells in PBS/matrigel for H1355 and HCC4017) were injected subcutaneously into the right flank of mice. Tumor growth was monitored by caliper measurements and tumor volume was calculated by 0.5×length×width^2). Treatment was started when tumors reached ˜150-200 mm3. Drug/Vehicle therapy was given to tumor volume matched pairs. Docetaxel (3 mg/kg) and cisplatin (3 mg/kg) were given i.p. once a week for 3 weeks. […]"}, "H1355 T16 xenografts": {"test_system": "H1355 T16 xenografts", "conditions": "GSK-J4 100 mg/kg i.p. 5x per week; JIB-04 50 mg/kg oral gavage 3x per week; 4 weeks", "description": "as §3, §4"}, "H1299 T18": {"test_system": "H1299 T18", "experiment": "MTS cell viability assay, H1299 T18 resistant variant vs H1299 Parental", "assay_type": "cell-based, human", "conditions": "SR = [IC50 of Parental]/[IC50 of Resistant]", "description": "as §1, §2"}}, "data": [{"smiles": "CCOC(=O)CCNc1cc(N2CCc3ccccc3CC2)nc(-c2ccccn2)n1", "note": "[GSK-J4]", "values": [{"measurement": "H1355 T16 SR (Selectivity Ratio)", "setting": "H1355 T16", "result": 10.4}, {"measurement": "top reversed down-regulated gene, fold change (down)", "setting": "H1299 T18 cells; LEAP2 for JIB-04, TAF9B for GSK-J4", "result": "~3", "unit": "fold"}, {"measurement": "top reversed up-regulated gene, fold change (up)", "setting": "H1299 T18 cells; YPEL2 for JIB-04, BNIP3 for GSK-J4", "result": "~10", "unit": "fold"}, {"measurement": "change in tumor volume relative to treatment start", "setting": "[1]", "result": "continued to grow in volume"}, {"measurement": "change in tumor volume relative to treatment start", "setting": "H1355 T16 xenografts", "result": "significant tumor shrinkage"}, {"measurement": "H1299 T18 SR (Selectivity Ratio)", "setting": "H1299 T18", "result": 22.3}]}]}
